Consider one compound from paper PMC13031153 (Acta Pharmaceutica Sinica. B, 2025).

For the assay, the system named is δ/μ^N-terminal Chimera. Type of assay: cell-based, mouse.

On to `CN1CC[C@]23c4c5ccc(O)c4O[C@H]2[C@@H](O)C=C[C@H]3[C@H]1C5` [morphine], for which the “agonist-induced K^+ currents” value was “abolished”.
